Source: PubChem BioAssay AID720509 (The Scripps Research Institute Molecular Screening Center, 2013)
The list shows a part of the results, in another mix than the full data. Activity calls are given as the source filed them.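 The calls were made as follows: active = inhibition above a per-campaign cutoff: mean of compounds within control limits plus 3 SD (cut at about 15% in these data); inactive = the rest.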

Sequences of proteins named here, by UniProt entry; tags and fusion partners are left off.
UniProt P02675, whole entry, looked up: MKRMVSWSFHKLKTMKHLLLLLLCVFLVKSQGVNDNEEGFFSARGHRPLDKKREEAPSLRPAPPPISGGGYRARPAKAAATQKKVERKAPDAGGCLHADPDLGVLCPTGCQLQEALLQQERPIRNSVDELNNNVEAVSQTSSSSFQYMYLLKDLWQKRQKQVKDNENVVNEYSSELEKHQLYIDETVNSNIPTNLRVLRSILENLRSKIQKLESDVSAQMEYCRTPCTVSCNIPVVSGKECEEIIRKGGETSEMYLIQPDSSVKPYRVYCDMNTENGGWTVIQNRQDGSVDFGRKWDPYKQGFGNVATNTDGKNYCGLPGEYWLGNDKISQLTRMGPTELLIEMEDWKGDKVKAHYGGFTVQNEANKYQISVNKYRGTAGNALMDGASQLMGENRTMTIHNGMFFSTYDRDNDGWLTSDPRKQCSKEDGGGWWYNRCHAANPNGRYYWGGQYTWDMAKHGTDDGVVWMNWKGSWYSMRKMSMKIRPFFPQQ

The compounds below were run against Fibrinogen beta chain (Homo sapiens) (UniProt P02675) (assay: small molecules displacing Tn6 from DD(E) complex – biochemical, fluorescence polarization, human fibrin, Tn6 probe, primary screen (AID 720509;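 also: 0% = median of all compound wells on the plate and 100% = blocking peptide control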)). Conditions: Fibrin DD(E) TRITC-Tn6 fluorescence polarization displacement; at 8.3 µM; active compounds read high.
In the case of CCC(=O)N(c1ccccc1)C1(COC)CCN(CCc2cccs2)CC1, the inhibition is reported as inactive: 8.59%.
With CCC(=O)N(c1ccccc1)C1(COC)CCN(CCn2nnn(CC)c2=O)CC1 the inhibition was inactive: 3.71%.
